Measured values: publication PMC8611036, “An integrated method for optimized identification of effective natural inhibitors against SARS-CoV-2 3CLpro” (Scientific Reports, 2021)

Experiments:
SARS-CoV-2 3CLpro [1] = biological target: T1, SARS-CoV-2 3CLpro (Severe acute respiratory syndrome coronavirus 2, UniProt P0DTD1); conditions: ref Zhu, Wei et al. ACS pharmacology & translational science vol. 3,5 (2020): 1008-1016, cited from earlier work
SARS-CoV-2 3CLpro [2] = biological target: T1, SARS-CoV-2 3CLpro

| SMILES | pIC50 (SARS-CoV-2 3CLpro [1]; from literature IC50) | IC50 (SARS-CoV-2 3CLpro [1]; unit not printed (pIC50 corresponds to µM)) [µM] | SI*pIC50 (SARS-CoV-2 3CLpro [2]) |
| --- | --- | --- | --- |
| CC(=O)Nc1cnc(SSc2ccc(Br)cc2)s1 [CMP23] | 5.187 | 6.5 | – |
| O=C(Nc1ccc(N(Cc2ccsc2)C(=O)Cn2nnc3ccccc32)cc1)C1CC1 [CMP195] | – | – | 5.539 |
